Source: ChEMBL document CHEMBL3822419, “Rational Design of Potent and Selective Inhibitors of an Epoxide Hydrolase Virulence Factor from Pseudomonas aeruginosa” (J Med Chem, 2016)

Test: Inhibition of Pseudomonas aeruginosa recombinant His-tagged CFTR inhibitory factor expressed in expressed in Top10 Escherichia coli cells assessed as formation of 6-methoxy-2-naphthaldehyde preincubated for 5 mins followed by addition of CMNGC as substrate measured for 10 mins in presence of BSA by fluorescent-based assay
How it was run: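 Recombinant His-tagged Cif (0.6 µM) preincubated with inhibitor 5 min at 37 °C in 20 mM sodium phosphate pH 7.0, 50 mM NaCl, 0.1 mg/mL BSA; CMNGC substrate 25 µM added. 6-Methoxy-2-naphthaldehyde formation read at ex 330/em 465 nm for 10 min. IC50 is the mean of triplicates, with at least two points above and two below it. No-enzyme controls were run for inhibitor fluorescence.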

IC50: 2600 nM
SMILES: CC(C)c1cc(Oc2c(Br)cc(NC(=O)CC(=O)O)cc2Br)ccc1O [EPROTIROME]
